{
  "source": "patent US12501868B2",
  "about": "“Haploid induction compounds and methods for use thereof” (WIMI BIOTECHNOLOGY (HAINAN) CO., LTD., priority 2020, dated 2025)",
  "key": {"maize": {"system": "maize", "test": "Haploid induction rate of maize after pollination with reagent-treated pollen", "settings": "maize pollen treated with saturated MMI"}, "maize pollen": {"system": "maize pollen", "test": "Relative ROS level in maize pollen (ROS detection kit, fluorometry)", "format": "cell-based", "settings": "ratio to 40% sucrose control, final concentration as listed per compound in Table 5, 6-7 measurements", "experimental": "The red channel or bright channel of the photo was analyzed, and the ROS level was represented by the light intensity of the wavelength with the largest proportion. The relative ROS level in a reproductive tissue refers to a ratio of the ROS level of the reproductive tissue to the ROS level in the control group (40% sucrose).\nTaking maize pollen as an example, the experiment of a series of compounds that may affect the ROS level in the maize pollen was tested.\nAll reagents are dissolved in 40% sucrose. The relative ROS levels were from 6-7 measurements."}},
  "data": [
    {"smiles": "Cn1cc[nH]c1=S", "note": "[Compound 12, Methimazole]", "values": [
      {"measurement": "toxicity to maize", "setting": "maize", "value": "maize sterility"},
      {"measurement": "Relative ROS Level Bright", "setting": "maize pollen; bright channel", "value": "1.12 ± 0.12"},
      {"measurement": "Relative ROS Level Red", "setting": "maize pollen; red channel", "value": "1.15 ± 0.14"}
    ]}
  ]
}
